The values that follow are results of earlier work, collected in PubChem BioAssay AID977611.

Holding throughout (assay): PubChem AID 977611
The target of data set [1] is BC domain of Acetyl-CoA carboxylase 2. Conditions: PDB protein-ligand complexes, literature Kd; protein: BC domain of Acetyl-CoA carboxylase 2; PDB entry 3JRX.
The target of data set [2] is Poly(ADP-ribose) polymerase 3. The conditions noted are these: PDB protein-ligand complexes, literature Kd; protein: Poly(ADP-ribose) polymerase 3; PDB entry 3FHB.
The target in data set [3] is Apoferritin. The conditions noted are these: PDB protein-ligand complexes, literature Kd; protein: Apoferritin; PDB entry 3F33.
The target in data set [4] is Glutamine-dependent NAD(+) synthetase. Conditions: PDB protein-ligand complexes, literature Kd; protein: Glutamine-dependent NAD(+) synthetase; PDB entry 3DLA.
The target in data set [5] is Agglutinin alpha chain, MPA. The conditions noted are these: PDB protein-ligand complexes, literature Kd; protein: Agglutinin alpha chain, MPA; PDB entry 3LM1.
Data set [6] concerns the target Hepatitis C virus polymerase NS5B (CON1 1-570). Conditions: PDB protein-ligand complexes, literature Kd; protein: Hepatitis C virus polymerase NS5B (CON1 1-570); PDB entry 3FQL.
For data set [7], the target named is Acarbose/maltose binding protein GacH. The conditions noted are these: PDB protein-ligand complexes, literature Kd; protein: Acarbose/maltose binding protein GacH; PDB entry 3JZJ.
In data set [8] the target is Maltose-binding periplasmic protein. Conditions: PDB protein-ligand complexes, literature Kd; protein: Maltose-binding periplasmic protein; PDB entry 3JYR.
Data set [9] has as its target human Pi class Glutathione S-transferase GSTP1-1(I104A). The conditions noted are these: PDB protein-ligand complexes, literature Kd; protein: human Pi class Glutathione S-transferase GSTP1-1(I104A); PDB entry 3IE3.
Data set [10] concerns the target human Pi class Glutathione S-transferase GSTP1-1. Conditions: PDB protein-ligand complexes, literature Kd; protein: human Pi class Glutathione S-transferase GSTP1-1; PDB entry 3GUS.
Data set [11] concerns the target catalytic domain of human MMP12. Conditions: PDB protein-ligand complexes, literature Kd; protein: catalytic domain of human MMP12; PDB entry 3LK8.
Data set [12] deals with F171D mutant of human MMP-12 catalytic domain (Gly106-Gly263). Conditions: PDB protein-ligand complexes, literature Kd; protein: F171D mutant of human MMP-12 catalytic domain (Gly106-Gly263); PDB entry 3LKA.
The target in data set [13] is 3LQ4 A + 3LQ4 B. Conditions: PDB protein-ligand complexes, literature Kd; PDB entry 3LQ4.
In data set [14] the target is 3LQ2 A + 3LQ2 B. The conditions noted are these: PDB protein-ligand complexes, literature Kd; PDB entry 3LQ2.
In data set [15] the target is human Nicotinamide phosphoribosyltransferase. The conditions noted are these: PDB protein-ligand complexes, literature Kd; protein: human Nicotinamide phosphoribosyltransferase; PDB entry 3DKJ.
Data set [16] has as its target QAPRTase. Conditions: PDB protein-ligand complexes, literature Kd; protein: QAPRTase; PDB entry 3C2F.
Data set [17] deals with Cysteine protease falcipain-3. Conditions: PDB protein-ligand complexes, literature Kd; protein: Cysteine protease falcipain-3; PDB entry 3BWK.
In data set [18] the target is mouse T-cell surface glycoprotein CD1d1. The conditions noted are these: PDB protein-ligand complexes, literature Kd; protein: mouse T-cell surface glycoprotein CD1d1; PDB entry 3ILQ.
The target in data set [19] is D-galactose-binding periplasmic protein. Conditions: PDB protein-ligand complexes, literature Kd; protein: D-galactose-binding periplasmic protein; PDB entry 3GA5.
In data set [20] the target is 2-C-methyl-D-erythritol 2,4-cyclodiphosphate synthase. The conditions noted are these: PDB protein-ligand complexes, literature Kd; protein: 2-C-methyl-D-erythritol 2,4-cyclodiphosphate synthase; PDB entry 3ELC.
Data set [21] addresses Lectin CEL-IV. The conditions noted are these: PDB protein-ligand complexes, literature Kd; protein: Lectin CEL-IV; PDB entry 3ALT.
For data set [22], the target named is Tyrosine-protein kinase ABL1-chain A,B. The conditions noted are these: PDB protein-ligand complexes, literature Kd; protein: Tyrosine-protein kinase ABL1-chain A,B; PDB entry 3MS9.
Data set [23] concerns the target Heat shock protein HSP 90-alpha. Conditions: PDB protein-ligand complexes, literature Kd; protein: Heat shock protein HSP 90-alpha; PDB entry 3K98.
In data set [24] the target is LT1009 (SONEPCIZUMAB) antibody Fab fragment. Conditions: PDB protein-ligand complexes, literature Kd; protein: LT1009 (SONEPCIZUMAB) antibody Fab fragment; PDB entry 3I9G.
The target of data set [25] is Bos Taurus Arp2/3. The conditions noted are these: PDB protein-ligand complexes, literature Kd; protein: Bos Taurus Arp2/3; PDB entry 3DXK.
The target in data set [26] is Retinaldehyde-binding protein 1, CRALBP mutant R234W. The conditions noted are these: PDB protein-ligand complexes, literature Kd; protein: Retinaldehyde-binding protein 1, CRALBP mutant R234W; PDB entry 3HX3.
Data set [27] deals with Actin-5C. Conditions: PDB protein-ligand complexes, literature Kd; protein: Actin-5C; PDB entry 3EKS.
For data set [28], the target named is Macrophage migration inhibitory factor(MIF). The conditions noted are these: PDB protein-ligand complexes, literature Kd; protein: Macrophage migration inhibitory factor(MIF); PDB entry 3IJG.
Data set [29] addresses Bovine Protein S100-B with Ca2+. The conditions noted are these: PDB protein-ligand complexes, literature Kd; protein: Bovine Protein S100-B with Ca2+; PDB entry 3LK1.
For data set [30], the target named is Probable aspartokinase. Conditions: PDB protein-ligand complexes, literature Kd; protein: Probable aspartokinase; PDB entry 3C1N.
The target in data set [31] is Phosphoribosyl-aminoimidazole carboxylase. The conditions noted are these: PDB protein-ligand complexes, literature Kd; protein: Phosphoribosyl-aminoimidazole carboxylase; PDB entry 3K5I.
The target in data set [32] is Human p38 MAP Kinase. Conditions: PDB protein-ligand complexes, literature Kd; protein: Human p38 MAP Kinase; PDB entry 3L8S.
The target of data set [33] is SERUM ALBUMIN. Conditions: PDB protein-ligand complexes, literature Kd; protein: SERUM ALBUMIN; PDB entry 2YDF.
In data set [34] the target is Plant pathogenesis-related proteins of class 10(PR-10). Conditions: PDB protein-ligand complexes, literature Kd; protein: Plant pathogenesis-related proteins of class 10(PR-10); PDB entry 3E85.
Data set [35] concerns the target Human PPARgamma ligand-binding domain. The conditions noted are these: PDB protein-ligand complexes, literature Kd; protein: Human PPARgamma ligand-binding domain; PDB entry 3ADT.

Bounds are passed on as bounds.

By Kd is commonly meant the constant that tells how readily two partners part at equilibrium. Turning to `CO[C@H]1CCCC[C@@H](c2ccccc2)OC(=O)[C@@H](C)[C@@]2(O)O[C@H]([C@@H](C)[C@H](O)[C@H]2OC)[C@@H](C)/C=C/[C@H]1OC`, the Kd in data set [1] was 0.001 µM.

Take `Nc1cccc(C(=O)O)c1`: the Kd in data set [2] was 2 µM.

Turning to `CC(C)c1cccc(C(C)C)c1O`, the equilibrium dissociation constant (Kd) in [3] is 460 µM.

On to `Nc1ncnc2c1ncn2[C@@H]1O[C@H](COP(=O)(O)OP(=O)(O)OC[C@H]2O[C@@H]([n+]3cccc(C(=O)[O-])c3)[C@H](O)[C@@H]2O)[C@@H](O)[C@H]1O`, for which the Kd in data set [4] was 350 µM.

In the case of `CC(=O)N[C@H]1[C@@H](Oc2ccc([N+](=O)[O-])cc2)O[C@H](CO)[C@H](O)[C@@H]1O`, the Kd in data set [5] is 20 µM.

Regarding `CNC(=O)c1c(-c2ccc(F)cc2)oc2cc(N(CCO)S(C)(=O)=O)c(C3CC3)cc12`, in data set [6], the Kd was 0.071 µM.

For `C[C@H]1O[C@H](O[C@H]2[C@H](O)[C@@H](O)[C@@H](O[C@H]3[C@H](O)[C@@H](O)[C@@H](O)O[C@@H]3CO)O[C@@H]2CO)[C@H](O)[C@@H](O)[C@@H]1N[C@H]1C=C(CO)[C@@H](O)[C@H](O)[C@H]1O`, the figures for the Kd in data set [7] and in data set [8] were 248 µM and 2.9 µM, respectively.

`O=[N+]([O-])c1ccc(SCCCCCCO)c2nonc12`: the Kd was 0.21 µM in data set [9] and 0.9 µM in data set [10].

For `COc1ccc(S(=O)(=O)NCC(=O)NO)cc1`, in data set [11], the Kd is 0.0197 µM.

For the molecule `COc1ccc(S(N)(=O)=O)cc1`, in data set [12], the dissociation constant Kd was 1500 µM.

Regarding `Cc1ncc(C[n+]2csc(CCOP(=O)([O-])OP(=O)(O)O)c2C)c(N)n1`, the equilibrium dissociation constant (Kd) in [13] and in data set [14] was 5.97 µM in each case.

Consider `O=P(O)(O)OC[C@H]1O[C@H](OP(=O)(O)OP(=O)(O)O)[C@H](O)[C@@H]1O`, for which the Kd in [15] was 2 µM; in [16], 10100 µM.

Take `CC(C)C[C@H](NC(=O)N1CCOCC1)C(=O)N[C@@H](CCc1ccccc1)CCS(=O)(=O)c1ccccc1`: the Kd in [17] was 114 µM.

Consider `CCCCCCCC/C=C\CCCCCCCC(=O)OC[C@H](CO[C@H]1O[C@H](CO)[C@H](O)[C@H](O)[C@H]1O)OC(=O)CCCCCCCCCCCCCCC`, for which the Kd in data set [18] was 6.2 µM.

For `OC[C@@H](O)CO[C@@H]1O[C@H](CO)[C@H](O)[C@H](O)[C@H]1O`, in data set [19], the Kd was 3.2 µM.

Turning to `Nc1nc(=O)n([C@@H]2O[C@H](CO)[C@@H](O)[C@H]2O)cc1F`, the Kd in [20] was 2020 µM.

Turning to `OC[C@H]1O[C@H](OC[C@H]2O[C@H](O)[C@H](O)[C@@H](O)[C@@H]2O)[C@H](O)[C@@H](O)[C@H]1O`, in [21], the dissociation constant Kd is 1190 µM.

As to `COC(=O)c1ccc(Cl)cc1N`, the Kd in data set [22] was 6 µM.

`CCNC(=O)[C@H]1c2ccccc2CN1C(=O)c1cc(Cl)c(O)cc1O`: in data set [23], the Kd was less than 0.001 µM.

For the molecule `CCCCCCCCCCCCC/C=C/[C@@H](O)[C@@H](N)COP(=O)(O)O`, the Kd in [24] is 0.0011 µM.

`Cc1[nH]c2ccccc2c1CCNC(=O)c1cccs1`: the dissociation constant Kd in data set [25] was 0.47 µM.

In the case of `CC1=C(/C=C/C(C)=C/C=C\C(C)=C\C=O)C(C)(C)CCC1`, in [26], the dissociation constant (Kd) is 0.01 µM.

As for `C=C1[C@@H](C)[C@H]2[C@H](Cc3ccccc3)NC(=O)[C@]23[C@H](OC(C)=O)/C=C/[C@@](C)(O)C(=O)[C@@H](C)C/C=C/[C@H]3[C@@H]1O`, the Kd in data set [27] was 2 µM.

For the molecule `CC(C)c1nn2ccccc2c1C(=O)[C@@H](C)N`, the Kd in data set [28] is 54 µM.

Take `O=C(O)c1ccccc1S`: the dissociation constant (Kd) in data set [29] is 55.2 µM.

Consider `C[C@@H](O)[C@H](N)C(=O)O`, for which the dissociation constant (Kd) in data set [30] is 3.13 µM.

As to `Nc1cncn1[C@@H]1O[C@H](COP(=O)(O)O)[C@@H](O)[C@H]1O`, the Kd in [31] is 20 µM.

On to `NC(=O)c1c(OCc2c(F)cc(Br)cc2F)nsc1NC(=O)NCCCCN1CCCC1`, for which the equilibrium dissociation constant (Kd) in data set [32] is 0.099 µM.

In the case of `CC[C@@H](Cc1c(I)cc(I)c(O)c1I)C(=O)O`, the dissociation constant Kd in [33] was 0.022 µM.

Turning to `O=C(Nc1ccccc1)Nc1ccccc1`, in [34], the Kd was 4.2 µM.

For the molecule `O=C(O)Cc1c[nH]c2ccc(O)cc12`, in data set [35], the Kd is 28 µM.
